# Measured values published in US12098214B2, “Combination therapies for treating cancer” (ALX Oncology Inc., priority 2021, dated 2024).
# System: MC38 m/h HER2 tumors
# Test: MC38 m/h HER2 colon tumor model in mice
# Assay type: in vivo, mouse
# Details: C57BL/6 mice, IP; DRUG A 30 mg/kg 2q10d, anti-PD-L1 antibody 1 mg/kg 3q5d, trastuzumab 30 mg/kg 3q5d; FIG. 1
# Source text: MC38 mouse/human HER2-expressing cells (“MC38 m/h HER2 cells”) were generated by infecting MC38 murine colon adenocarcinoma cells with a lentivirus vector encoding a chimera of mouse and human HER2 transmembrane and extracellular domains.
# Prior to implantation, a master cell bank of each cell line was generated to assure that cells used in subsequent experiments were of the same passage number. […] When tumor size reached an average of 65-69 mm^3 for MC38 m/h HER2 tumors, the animals were randomized into 8 groups of 10 mice. Each group was assigned to a treatment group outlined in Table A below.
# Tumor volumes and body weights were recorded two or three times per week. […] Statistical analysis and p values were calculated using GraphPad Prism Software.
substance,measurement,value
trastuzumab: anti-HER2 antibody,effect on tumor growth / tumor growth inhibition,no effect on tumor growth
